Measurements reported in PubChem BioAssay (NCATS).
Several values for one entry are separate records, joined by “and”; a condition that tells them apart may be missing. Identical values can stand only once. This is a selection; strong and weak results do not stand in their true shares. Results filed as inconclusive are left out. Activity calls are given as the source filed them. Unless noted, the call rests on the fitted dose curve; in most records, active means well fitted curve in the direction sought with a large enough effect; inconclusive means small, poorly fitted or top-dose-only effect, or another doubt; inactive means no such curve, though single readings can be large; an effect the other way counts as inactive or inconclusive.

How the values were obtained:
[1] = qHTS assay for cell viability of HEK293 cells (AID 743288); details: ATP luminescence (CellTiter-Glo), 18 h, hits give low values; further: on the % scale 0 is the no-effect control and ±100 the full control effect; nearly all actives have a fitted effect of over 50% in size
How it was run: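 ATP luminescence (CellTiter-Glo) reports metabolically competent cell number after parental HEK293 cells, 2,000/well, were treated with DMSO-dissolved compounds for 18 h at 37 C; reagent incubation 30 min, room temperature.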

[2] = qHTS assay for cell viability of the p53RE-bla HCT-116 cell line (AID 743292); details: p53RE-bla HCT-116 viability, ATP luminescence, 16 h; at 95 µM (top of the series); further: on the % scale 0 is the no-effect control and ±100 the full control effect; nearly all actives have a fitted effect of over 55% in size
How it was run: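 CellSensor p53RE-bla HCT-116 cells (4,000/well) pre-incubated 5 h at 37 C, then exposed to compounds in DMSO for 16 h at 37 C. Viability read as ATP content by CellTiter-Glo luminescence after 30 min at room temperature.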

[3] = qHTS assay for small molecule antagonists of the retinoid-related orphan receptor gamma (ROR-gamma) signaling pathway - cell viability counter screen (AID 720652; active means well fitted curve in the direction sought with a large enough effect in the repeat runs; an effect the other way counts as inactive or inconclusive;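 further: CHO reporter cells with doxycycline-induced ROR-gamma expression; compound exposure lasted 16 hr before ATP read; on the % scale 0 is the no-effect control and ±100 the full control effect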); details: RORgamma reporter cell line viability counter screen; at 92.2 µM (top of the series)
[4] = qHTS Assay for Identifying Gametocytocidal Compounds (AID 743244);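 further: on the % scale 0 is the no-effect control and ±100 the full control effect; actives lower the fluorescent signal which means gametocytes are killed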; details: P. falciparum 3D7 stage III-V gametocytes, alamarBlue, 72 h; hits give low values
[5] = qHTS assay to identify small molecule inhibitors of chordoma cells - UCH-2 (AID 1259356); details: UCH-2 chordoma viability, CellTiter-Glo ATP luminescence, 48 h; at 46.1 µM (top of the series) unless noted; further: on the % scale 0 is the no-effect control and ±100 the full control effect
[6] = qHTS of pediatric cancer cell lines to identify multiple opportunities for drug repurposing: Primary screen for TC32 cells (AID 1347089); details: TC32 Ewing sarcoma viability, CellTiter-Glo luminescence, 48 h; at 45.8 µM (top of the series) unless noted; further: on the % scale 0 is the no-effect control and ±100 the full control effect; nearly all actives have a fitted effect of over 60% in size
How it was run: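 In the primary qHTS, MIPE compounds were tested at 11 concentrations (0.78 nM to 46 µM) and NPC compounds at 8 (0.59 nM to 46 µM) on TC32 cells for 48 h. CellTiter-Glo luminescence gave viability.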

[7] = qHTS of pediatric cancer cell lines to identify multiple opportunities for drug repurposing: Primary screen for DAOY cells (AID 1347090); details: DAOY medulloblastoma viability, CellTiter-Glo luminescence, 48 h; at 92.7 µM (top of the series) unless noted;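 further: plate controls were DMSO for no effect and bortezomib for full effect; nearly all actives have a fitted effect of over 55% in size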
How it was run: (§1)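 Cell viability, CellTiter-Glo luminescence; 500-1,000 cells/well, 8- or 11-point titration, 48 h compound exposure at 37 degrees C, 5% CO2. Controls: DMSO neutral, bortezomib 2.3 µM final as positive.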

[8] = qHTS of pediatric cancer cell lines to identify multiple opportunities for drug repurposing: Primary screen for SJ-GBM2 cells (AID 1347091); details: SJ-GBM2 viability, CellTiter-Glo luminescence, 48 h; at 46 µM (top of the series) unless noted;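 further: plate controls were DMSO neutral control for no effect and bortezomib for full effect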
How it was run: as §1

[9] = qHTS of pediatric cancer cell lines to identify multiple opportunities for drug repurposing: Primary screen for A673 cells (AID 1347092); details: A673 Ewing sarcoma viability, CellTiter-Glo ATP luminescence, 48 h; at 46 µM (top of the series) unless noted; further: on the % scale 0 is the no-effect control and ±100 the full control effect; nearly all actives have a fitted effect of over 45% in size
How it was run: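 48 h compound exposure, A673, 500-1,000 cells/well, 37 degrees C/5% CO2. MIPE: 11-point, 0.78 nM-46 µM; NPC: 8-point, 0.59 nM-46 µM (final). Readout CellTiter-Glo luminescence after 15 min RT.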

[10] = qHTS of pediatric cancer cell lines to identify multiple opportunities for drug repurposing: Primary screen for SK-N-MC cells (AID 1347093); details: SK-N-MC viability, CellTiter-Glo luminescence, 48 h; series mostly up to 46 µM;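 further: plate controls were DMSO neutral control for no effect and bortezomib for full effect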
[11] = qHTS of pediatric cancer cell lines to identify multiple opportunities for drug repurposing: Primary screen for BT-37 cells (AID 1347094); details: BT-37 viability, CellTiter-Glo luminescence, 48 h; at 57.3 µM (top of the series) unless noted;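 further: plate controls were DMSO for no effect and bortezomib for full effect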
How it was run: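 Cells plated at 500-1,000/well in growth medium, compounds added after 5 h. MIPE tested at 11 points (from 0.78 nM), NPC at 8 points (from 0.59 nM). CellTiter-Glo luminescence after 48 h; concentration-response curves from primary screen.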

[12] = qHTS of pediatric cancer cell lines to identify multiple opportunities for drug repurposing: Primary screen for NB-EBc1 cells (AID 1347095); details: NB-EBc1 neuroblastoma viability, CellTiter-Glo luminescence, 48 h; at 92.7 µM (top of the series) unless noted;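 further: plate controls were DMSO neutral control for no effect and bortezomib for full effect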
[13] = qHTS of pediatric cancer cell lines to identify multiple opportunities for drug repurposing: Primary screen for U-2 OS cells (AID 1347096); details: U-2 OS viability, CellTiter-Glo luminescence, 48 h; at 46 µM (top of the series) unless noted;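 further: plate controls were DMSO wells for no effect and bortezomib positive control wells for full effect; nearly all actives have a fitted effect of over 50% in size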
How it was run: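 Cells (500-1,000/well) rested 5 h, then received compounds for 48 h; metabolically active cells were measured by CellTiter-Glo luminescence. Final concentrations spanned up to 46 µM (MIPE, 11-point) or 0.59 nM-46 µM (NPC, 8-point) in primary screens, 11-point in follow-ups.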

Cc1ccc([N+](=O)[O-])c([N+](=O)[O-])c1
inactive: max response [1] -4.09% and -0.299% | activity change, negative = cytotoxicity [2] -6.24% and -5.32%

[NH4+].[O-][Cl+3]([O-])([O-])[O-]
inactive: activity change, negative = cytotoxicity [3] 10.3% | max response [1] -0.505% | activity change, negative = cytotoxicity [2] -0.15%

CCC(C)(OO)OOC(C)(CC)OO (stereo not drawn)
inactive: activity change, negative = cytotoxicity [3] 17.1% | max response [1] -1.31% and 1.13% | activity change, negative = cytotoxicity [2] -6.09% and -3.13%

OCCSCCO
inactive: max response [4] 5.93% | activity change, negative = inhibition [5] -3.42% | activity change, negative = cytotoxic [6] 4.07% | activity change, negative = cytotoxic [7] 3.5% [at 46 µM] | activity change, negative = cytotoxic [8] 26.2% | activity change, negative = cytotoxic [9] -2.16% | Potency [10] | activity change, negative = cytotoxic [11] 14.5% | activity change, negative = cytotoxic [12] 26.8% [at 46 µM] | activity change, negative = cytotoxic [13] 6.05%
